Only a part is listed here, and it is no random draw.
biological target: T1, Eukaryotic elongation factor 2 kinase (Homo sapiens) (UniProt O00418); conditions: at 1 µM
T1 sequence (whole entry): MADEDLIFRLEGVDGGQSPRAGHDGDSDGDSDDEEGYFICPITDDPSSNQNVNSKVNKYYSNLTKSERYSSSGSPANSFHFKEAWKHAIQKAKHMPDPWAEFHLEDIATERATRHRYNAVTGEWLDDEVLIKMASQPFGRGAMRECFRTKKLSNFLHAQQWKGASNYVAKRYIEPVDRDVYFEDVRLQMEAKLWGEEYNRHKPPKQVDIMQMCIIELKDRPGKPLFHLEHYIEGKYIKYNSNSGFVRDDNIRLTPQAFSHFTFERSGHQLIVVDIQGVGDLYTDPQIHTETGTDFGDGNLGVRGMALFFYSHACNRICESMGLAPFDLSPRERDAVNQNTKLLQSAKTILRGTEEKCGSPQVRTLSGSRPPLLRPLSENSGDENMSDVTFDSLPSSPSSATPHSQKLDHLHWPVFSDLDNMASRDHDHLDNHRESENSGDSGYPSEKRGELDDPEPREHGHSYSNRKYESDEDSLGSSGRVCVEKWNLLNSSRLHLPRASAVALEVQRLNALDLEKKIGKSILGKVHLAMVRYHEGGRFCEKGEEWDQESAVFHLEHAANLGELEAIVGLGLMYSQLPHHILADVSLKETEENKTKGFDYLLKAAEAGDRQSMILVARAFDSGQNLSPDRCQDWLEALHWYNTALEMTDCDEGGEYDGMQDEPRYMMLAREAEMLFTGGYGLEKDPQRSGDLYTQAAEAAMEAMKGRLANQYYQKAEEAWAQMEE

Row | Compound | residual activity
1 | CO[C@H]1[C@@H](OC)C[C@H](C)[C@@H](OC)C2=CC(=O)C=C(NC(=O)/C(C)=C/C=C/[C@H](OC)[C@@H](OC(N)=O)/C(C)=C/[C@@H]1C)C2=O | inactive: 120%
2 | CCOc1cc2ncnc(Nc3cccc(Br)c3)c2cc1OCC | inactive: 91%
3 | CC(C)(C)c1nc2c3ccc(F)cc3c3c(=O)[nH]ccc3c2[nH]1 | inactive: 81%
4 | Cn1cnc2cc3c(Nc4cccc(Br)c4)ncnc3cc21 | inactive: 91%
5 | COc1cc2ncnc(N3CCN(C(=O)Nc4ccc(Oc5ccccc5)cc4)CC3)c2cc1OC | inactive: 95%
6 | CCCC(=O)Oc1ccc2[nH]c(C(=O)c3cc4ccccc4[nH]3)cc2c1 | inactive: 94%
7 | Cn1sc(=O)n(Cc2ccccc2)c1=O | inactive: 96%
8 | O=C(Nc1cccc(Nc2cc(Nc3cccc(C(F)(F)F)c3)ncn2)c1)C1CC1 | inactive: 93%
9 | CN(C)CCCn1cc(C2=C(c3c[nH]c4ccccc34)C(=O)NC2=O)c2ccccc21 | inactive: 113%
10 | COc1ccc(-c2cnc3c(-c4ccsc4)cnn3c2)cc1 | inactive: 87%
11 | CC(=O)c1ccc(N2CCOCC2)cc1O | inactive: 86%
12 | CO[C@H]1C[C@@H]2CC[C@@H](C)[C@@](O)(O2)C(=O)C(=O)N2CCCC[C@H]2C(=O)O[C@H]([C@H](C)C[C@@H]2CC[C@@H](O)[C@H](OC)C2)CC(=O)[C@H](C)/C=C(\C)[C@@H](O)[C@@H](OC)C(=O)[C@H](C)C[C@H](C)/C=C/C=C/C=C/1C | inactive: 111%
13 | O=C1Nc2ccc(Cl)cc2/C1=C/c1cc(Cl)c(O)c(Cl)c1 | inactive: 94%
14 | NC(=O)Nc1sc(-c2ccc(F)cc2)cc1C(N)=O | inactive: 77%
15 | CC#CC(=O)Nc1cc2c(Nc3ccc(F)c(Cl)c3)ncnc2cn1 | inactive: 101%
16 | Cc1cc2ncc(-c3ccccc3)nc2cc1C | inactive: 86%
17 | Nc1ncnc2[nH]nc(Nc3ccc(F)cc3)c12 | inactive: 100%
18 | O=c1cc(N2CCOCC2)oc2c1ccc1ccccc12 | inactive: 99%
19 | N#C/C(=C\c1ccc(O)c(O)c1)C(=O)NCc1ccccc1 | inactive: 83%
20 | O=c1cc(N2CCNCC2)oc2c(-c3ccccc3)cccc12 | inactive: 95%
21 | Cc1cccc(-c2[nH]c(C(C)(C)C)nc2-c2ccc3c(c2)OCO3)n1 | inactive: 99%
22 | CO[C@@H]1[C@H](N(C)C(=O)c2ccccc2)C[C@H]2O[C@]1(C)n1c3ccccc3c3c4c(c5c6ccccc6n2c5c31)C(=O)NC4 | inactive: 83%
23 | Nc1ncnc2c1c(-c1ccc(Oc3ccccc3)cc1)cn2C1CCCC1 | inactive: 87%
24 | O=C1NC(=O)c2cc(Nc3ccc(F)cc3)c(Nc3ccc(F)cc3)cc21 | inactive: 84%
25 | O=C1C(Cl)=C(N2C(=O)CCC2=O)C(=O)c2ccccc21 | inactive: 100%

biological target: T1, Eukaryotic elongation factor 2 kinase (Homo sapiens); conditions: at 10 µM

Row | Compound | residual activity
26 | CO[C@H]1[C@@H](OC)C[C@H](C)[C@@H](OC)C2=CC(=O)C=C(NC(=O)/C(C)=C/C=C/[C@H](OC)[C@@H](OC(N)=O)/C(C)=C/[C@@H]1C)C2=O | 112%
27 | CCOc1cc2ncnc(Nc3cccc(Br)c3)c2cc1OCC | 107%
28 | Cn1cnc2cc3c(Nc4cccc(Br)c4)ncnc3cc21 | 113%
29 | Cn1sc(=O)n(Cc2ccccc2)c1=O | 83%
30 | O=C(Nc1cccc(Nc2cc(Nc3cccc(C(F)(F)F)c3)ncn2)c1)C1CC1 | 84%
31 | CN(C)CCCn1cc(C2=C(c3c[nH]c4ccccc34)C(=O)NC2=O)c2ccccc21 | 115%
32 | N#C/C(=C(/N)SC1C=CC=CC1)c1cccc(C(O)c2ccncc2)c1 (centres undefined) | 88%
33 | CC(=O)c1ccc(N2CCOCC2)cc1O | 105%
34 | CO[C@H]1C[C@@H]2CC[C@@H](C)[C@@](O)(O2)C(=O)C(=O)N2CCCC[C@H]2C(=O)O[C@H]([C@H](C)C[C@@H]2CC[C@@H](O)[C@H](OC)C2)CC(=O)[C@H](C)/C=C(\C)[C@@H](O)[C@@H](OC)C(=O)[C@H](C)C[C@H](C)/C=C/C=C/C=C/1C | 148%
35 | O=C1Nc2ccc(Cl)cc2/C1=C/c1cc(Cl)c(O)c(Cl)c1 | 97%
36 | NC(=O)Nc1sc(-c2ccc(F)cc2)cc1C(N)=O | 38%
37 | CC#CC(=O)Nc1cc2c(Nc3ccc(F)c(Cl)c3)ncnc2cn1 | 93%
38 | Cc1cc2ncc(-c3ccccc3)nc2cc1C | 106%
39 | O=c1cc(N2CCOCC2)oc2c1ccc1ccccc12 | 94%
40 | N#C/C(=C\c1ccc(O)c(O)c1)C(=O)NCc1ccccc1 | 122%
41 | O=c1cc(N2CCNCC2)oc2c(-c3ccccc3)cccc12 | 97%
42 | CO[C@@H]1[C@H](N(C)C(=O)c2ccccc2)C[C@H]2O[C@]1(C)n1c3ccccc3c3c4c(c5c6ccccc6n2c5c31)C(=O)NC4 | 98%
43 | O=C1NC(=O)c2cc(Nc3ccc(F)cc3)c(Nc3ccc(F)cc3)cc21 | 147%
44 | O=C1C(Cl)=C(N2C(=O)CCC2=O)C(=O)c2ccccc21 | 91%

— ChEMBL document CHEMBL2218924, “A broad activity screen in support of a chemogenomic map for kinase signalling research and drug discovery” (Biochem J, 2013)
